{"sequences": {"note": "Sequences of proteins named here, by UniProt entry; tags and fusion partners are left off. Residues count along the entry.", "UniProt O60674, 835-1132": "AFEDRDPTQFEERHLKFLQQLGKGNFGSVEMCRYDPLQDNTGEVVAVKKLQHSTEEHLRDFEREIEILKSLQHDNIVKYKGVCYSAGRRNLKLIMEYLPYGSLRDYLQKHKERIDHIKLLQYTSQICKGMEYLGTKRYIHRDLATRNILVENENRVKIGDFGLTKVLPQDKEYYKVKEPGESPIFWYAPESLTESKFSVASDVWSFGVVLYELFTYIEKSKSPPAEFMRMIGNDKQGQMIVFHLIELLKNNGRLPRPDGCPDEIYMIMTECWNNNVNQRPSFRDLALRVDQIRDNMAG", "UniProt P52333, 811-1124": "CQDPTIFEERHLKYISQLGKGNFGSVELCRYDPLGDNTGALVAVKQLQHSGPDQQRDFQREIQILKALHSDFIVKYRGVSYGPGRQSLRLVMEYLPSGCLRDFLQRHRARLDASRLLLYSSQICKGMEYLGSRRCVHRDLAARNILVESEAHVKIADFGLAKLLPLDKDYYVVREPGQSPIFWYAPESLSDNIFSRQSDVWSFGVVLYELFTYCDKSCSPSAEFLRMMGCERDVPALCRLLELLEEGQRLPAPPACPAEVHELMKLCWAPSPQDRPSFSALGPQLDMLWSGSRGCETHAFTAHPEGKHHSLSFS", "UniProt P29597, 888-1187": "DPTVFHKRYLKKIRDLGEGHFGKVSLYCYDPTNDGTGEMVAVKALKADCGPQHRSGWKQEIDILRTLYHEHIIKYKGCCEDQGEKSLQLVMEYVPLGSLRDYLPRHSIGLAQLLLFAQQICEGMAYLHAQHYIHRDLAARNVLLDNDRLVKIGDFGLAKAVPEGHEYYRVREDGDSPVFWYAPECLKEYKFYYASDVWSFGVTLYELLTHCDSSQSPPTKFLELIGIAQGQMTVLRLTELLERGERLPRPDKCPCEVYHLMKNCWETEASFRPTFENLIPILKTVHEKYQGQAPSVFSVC", "UniProt P23458, 854-1154": "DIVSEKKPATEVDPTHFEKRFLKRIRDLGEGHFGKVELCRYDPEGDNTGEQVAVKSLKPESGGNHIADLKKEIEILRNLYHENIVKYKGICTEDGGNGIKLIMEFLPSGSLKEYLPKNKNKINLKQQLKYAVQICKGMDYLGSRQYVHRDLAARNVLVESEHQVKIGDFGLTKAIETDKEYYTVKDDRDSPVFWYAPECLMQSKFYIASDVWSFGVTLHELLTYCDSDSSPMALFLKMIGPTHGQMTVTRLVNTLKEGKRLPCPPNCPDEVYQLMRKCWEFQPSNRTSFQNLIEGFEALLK"}, "source": "patent US20180298101A1", "key": {"JAK2 kinase domain (JH1)": {"biological_target": "JAK2 kinase domain (JH1) (UniProt O60674)"}, "JAK3 kinase domain (JH1)": {"biological_target": "JAK3 kinase domain (JH1) (UniProt P52333)"}, "TYK2 kinase domain (JH1)": {"biological_target": "TYK2 kinase domain (JH1) (UniProt P29597)"}, "IL-2Rβ (pY338)": {"biological_target": "IL-2Rβ (pY338)", "assay": "ITC"}, "IL-2Rβ (pY358)": {"biological_target": "IL-2Rβ (pY358)", "assay": "ITC"}, "IL-2Rβ (pY510)": {"biological_target": "IL-2Rβ (pY510)", "assay": "ITC"}, "IL-2Rγ (pY303)": {"biological_target": "IL-2Rγ (pY303)", "assay": "ITC"}, "IL-2Rγ (pY325)": {"biological_target": "IL-2Rγ (pY325)", "assay": "ITC"}, "IL-2Rγ (pY357)": {"biological_target": "IL-2Rγ (pY357)", "assay": "ITC"}, "IL-2Rγ (pY363)": {"biological_target": "IL-2Rγ (pY363)", "assay": "ITC"}, "JAK1 (Y1034)": {"biological_target": "JAK1 (Y1034)", "assay": "ITC"}, "mIL-2Rβ (pY392)": {"biological_target": "mIL-2Rβ (pY392)", "assay": "ITC"}, "JAK1 kinase domain (JH1) [1]": {"biological_target": "JAK1 kinase domain (JH1) (UniProt P23458)"}, "JAK1 kinase domain (JH1) [2]": {"biological_target": "JAK1 kinase domain (JH1) (UniProt P23458)", "remark": "listed apart in the source"}, "JAK1 kinase domain (JH1) [3]": {"biological_target": "JAK1 kinase domain (JH1) (UniProt P23458)", "assay": "cell-based or functional assay"}, "JAK1 kinase domain (JH1) [4]": {"biological_target": "JAK1 kinase domain (JH1) (UniProt P23458)", "remark": "listed apart in the source"}}, "note": "Where two headings read alike, the source gives them in different places."}
{"substance": "hCIS-SH2-BC complex (ternary complex of human GST-CIS-SH2 construct, residues 66-258 with PEST region 174-202 deleted, with Elongin B and Elongin C) (from UniProt Q9NSE2 66-258; Q15370 1-118; P83940 17-112)", "values": [{"measurement": "IC50", "setting": "JAK2 kinase domain (JH1)", "value": 2.4, "unit": "µM"}, {"measurement": "IC50", "setting": "JAK3 kinase domain (JH1)", "value": 6.7, "unit": "µM"}, {"measurement": "IC50", "setting": "TYK2 kinase domain (JH1)", "value": "> 20", "unit": "µM"}, {"measurement": "Kd", "setting": "IL-2Rβ (pY338)", "value": 7, "unit": "µM"}, {"measurement": "Kd", "setting": "IL-2Rβ (pY358)", "value": "> 10", "unit": "µM"}, {"measurement": "Kd", "setting": "IL-2Rβ (pY510)", "value": "> 10", "unit": "µM"}, {"measurement": "Kd", "setting": "IL-2Rγ (pY303)", "value": "> 10", "unit": "µM"}, {"measurement": "Kd", "setting": "IL-2Rγ (pY325)", "value": "> 10", "unit": "µM"}, {"measurement": "Kd", "setting": "IL-2Rγ (pY357)", "value": "> 10", "unit": "µM"}, {"measurement": "Kd", "setting": "IL-2Rγ (pY363)", "value": "> 10", "unit": "µM"}, {"measurement": "Kd", "setting": "JAK1 (Y1034)", "value": "> 10", "unit": "µM"}, {"measurement": "Kd", "setting": "mIL-2Rβ (pY392)", "value": 1.5, "unit": "µM"}]}
{"substance": "human full-length CIS in trimeric complex with elongin B and elongin C (from UniProt Q9NSE2 1-258; Q15370 1-118; Q15369 17-112)", "values": [{"measurement": "IC50", "setting": "JAK1 kinase domain (JH1) [1]", "value": 32.3, "unit": "µM"}]}
{"substance": "human CIS lacking the N-terminal 34 residues (ΔN34) in trimeric complex with elongin B and elongin C (from UniProt Q9NSE2 35-258; Q15370 1-118; Q15369 17-112)", "values": [{"measurement": "IC50", "setting": "JAK1 kinase domain (JH1) [2]", "value": 96.8, "unit": "µM"}]}
{"substance": "human CIS lacking the PEST motif (ΔPEST) in trimeric complex with elongin B and elongin C (from UniProt Q9NSE2 1-258; Q15370 1-118; Q15369 17-112)", "values": [{"measurement": "IC50 of inhibition of the JAK1 kinase domain (JH1), in vitro kinase reaction", "setting": "JAK1 kinase domain (JH1) [3]", "value": 3320, "unit": "µM"}, {"measurement": "IC50", "setting": "JAK1 kinase domain (JH1) [4]", "value": 3.32, "unit": "µM"}]}
